Values quoted from earlier work in US11293870B2, “Vital stain” (Mie University, priority 2013, dated 2022).

Settings: Mouse, Intra-venous; cited from earlier work

CC1(C)C(/C=C/C=C/C=C/C=C2\N(CCCCS(=O)(=O)O)c3ccc4ccccc4c3C2(C)C)=[N+](CCCCS(=O)(=O)[O-])c2ccc3ccccc3c21 [Indocyanine green, reference compound]
LD50: 60 mg/kg
